{
  "source": "paper PMC11721541",
  "about": "(Journal of Lipid Research, 2024)",
  "key": {"Pah1": {"biological_target": "Pah1 (Saccharomyces cerevisiae, UniProt P32567)", "details": "6 mM inhibitor preincubation; time course 20 s to 1 h"}, "[1]": {"test_system": "WT S. cerevisiae cells (RS453)"}, "HepG2 cells": {"test_system": "HepG2 cells", "assay": "Lipid analysis (TLC, charring) in HepG2 cells", "type": "cell-based, human", "details": "10 μM, 18 h"}, "[2]": {"biological_target": "Pah1 PAP (unphosphorylated) (Saccharomyces cerevisiae, UniProt P32567)"}, "[3]": {"details": "inhibitor 31.25 M (so in the source)"}, "[4]": {"details": "inhibitor 62.5 M (so in the source)"}, "[5]": {"details": "inhibitor 125 M (so in the source)"}},
  "note": "Where two headings read alike, the source gives them in different places.",
  "data": [
    {"molecule": "CN[C@H]1CC[C@@H](c2ccc(Cl)c(Cl)c2)c2ccccc21", "note": "[sertraline]", "values": [
      {"measurement": "protection of Pah1 peptides from deuterium exchange", "setting": "Pah1", "result": "failed to see protected peptides"},
      {"measurement": "concentration that greatly reduces cell growth", "setting": "[1]; RPMI-0.2% glucose medium, exponential growth", "result": 10, "unit": "µM"},
      {"measurement": "concentration required for similar reduction of cell growth", "setting": "[1]; SC-0.2% glucose medium, exponential growth", "result": 245, "unit": "µM"},
      {"measurement": "concentration that abolishes cell growth, less in RPMI-0.2% glucose than in SC-0.2% glucose", "setting": "[1]; static incubation 2 days", "result": "~30", "unit": "fold"},
      {"measurement": "relative amount of phospholipids", "setting": "HepG2 cells", "result": "not significantly affected"},
      {"measurement": "reduction of Pah1 PAP activity", "setting": "[2]; 62 μM of each inhibitor, PA 2.4 mol %", "result": 38, "unit": "%"},
      {"measurement": "more effective inhibitor than propranolol based on Ki values", "setting": "[2]; Pah1", "result": 7, "unit": "fold"},
      {"measurement": "Hill no. n", "setting": "[2]; [3]", "result": 3.1},
      {"measurement": "Vmax", "setting": "[2]; [3]", "result": 6.0, "unit": "mol/min/mg"},
      {"measurement": "Hill no. n", "setting": "[2]; [4]", "result": 4.0},
      {"measurement": "Vmax", "setting": "[2]; [4]", "result": 3.0, "unit": "mol/min/mg"},
      {"measurement": "Hill no. n", "setting": "[2]; [5]", "result": 3.7},
      {"measurement": "Vmax", "setting": "[2]; [5]", "result": 1.3, "unit": "mol/min/mg"},
      {"measurement": "mechanism of inhibition of PAP activity", "setting": "[2]; purified Pah1", "result": "noncompetitive"}
    ]}
  ]
}
